Hits are enriched below; roughly 16% of the tested compounds scored in any of these assays.
DT40 TDP1 no CPT – qHTS for Inhibitors of human tyrosyl-DNA phosphodiesterase 1 (TDP1): qHTS in cells in absence of CPT; hit rate 15% among 420,000; DT40 Tdp1-/- hTDP1 cells, no CPT, ATP luminescence, 48 h; Potency, µM (doses to about 46.2 µM), without a hit: at the top dose activity change, negative = growth inhibition, hits mostly inhibitors; AID 686978, 2013; also: potency is read from the fitted curve at half-maximal effect; % is scaled to controls: 0 for no effect and ±100 for the full control effect; nearly all actives have a fitted effect of over 55% in size
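DT40 Tdp1-/-;hTDP1 cells, no CPT (DMSO vehicle only), 400 cells/well; compounds pin-transferred; ≥48 hr, 37 °C; CellTiter-Glo 30 min RT dark, luminescence read.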
uPA generation – blocks generation of uPA at the cell surface. AID 540303. hit rate 0.31% among 330,000. cell surface uPA generation assay, qHTS. Potency, µM (series often up to 38.3 µM), without a hit: top-dose activity change, negative = inhibition, usual class: inhibitors; active = well fitted inhibition curve with a large enough effect; inconclusive = small, poorly fitted or top-dose-only effect; inactive = no such curve, though single readings can be large or run the other way; tested in mouse RAW 264.7 cells; also: potency is read from the fitted curve at half-maximal effect; % is scaled to controls: 0 for no effect and ±100 for the full control effect; nearly all actives have a fitted effect of over 55% in size
TDP1 cell CPT – DT40-hTDP1 cell growth loss with CPT | chicken DT40 Tdp1-/-;hTDP1 cells + 20 nM CPT, ATP luminescence, 48 h | Potency, µM (top dose mostly 46.2 µM), inactives show top-dose activity change, negative = growth inhibition, usual class: inhibitors | hit rate 12% among 420,000; also: potency is read from the fitted curve at half-maximal effect; % is scaled to controls: 0 for no effect and ±100 for the full control effect; nearly all actives have a fitted effect of over 55% in size
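Chicken DT40 Tdp1-/- cells complemented with human TDP1, 400 cells/well, exposed to compounds plus 20 nM camptothecin for at least 48 h at 37 C; viability read as ATP content by CellTiter-Glo luminescence.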
miR-21 reporter – raises the signal of a miR-21 reporter; AID 2288; 340,000 tested, under 10 active; Potency, µM (doses to about 38.3 µM), inactives show at the top dose reporter change, positive = more light; HeLa miR-21 FLuc reporter, luciferase, 48 h; active = well fitted rising curve with a large enough effect; inconclusive = small, poorly fitted or top-dose-only effect; inactive = no such curve, though single readings can be large or run the other way;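 note: % of control where 0% means no effect; miR-21 action dims this reporter so a rising signal means less miR-21 action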
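HeLa cells stably expressing CMV-driven firefly luciferase with a downstream miR-21 binding sequence, endogenously expressing miR-21, were treated with titrations (up to about 40uM final) for 48 hours at 37 degree Celsius. Luciferase luminescence was read after lysis.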
TDP1 inh – blocks human tyrosyl-DNA phosphodiesterase 1; Q9NUW8; recombinant TDP1, AlphaScreen DNA substrate cleavage; Potency, µM (highest dose often 130 µM), for the others: at the highest dose activity change, negative = inhibition, hits mostly inhibitors; hit rate 0.28% among 350,000; also: potency is read from the fitted curve at half-maximal effect; % is scaled to controls: 0 for no effect and ±100 for the full control effect; nearly all actives have a fitted effect of over 40% in size
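Compounds were preincubated with Tdp1 (1 nM final) for 15 min at room temperature before substrate (15 nM final) started a 5 min reaction; beads (10 ug/ml final) were then added for 10 min before AlphaScreen detection.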
* = called active by the depositor; ? = inconclusive; · = not tested or not shown; ! = repeats disagree; [ ] = another dose, or the depositor's remark. Unless noted, calls follow the shape of the dose curve; as a rule, active = well fitted curve in the direction sought with a large enough effect; inconclusive = small, poorly fitted or top-dose-only effect, or another doubt; inactive = no such curve, though single readings can be large; an effect the other way counts as inactive or inconclusive.

A first look:
1. COc1ccc(S(=O)(=O)Nc2ccc3c(c2)C(=O)N([C@H](C)CO)C[C@H](C)[C@@H](CN(C)C(=O)Nc2ccc(C(F)(F)F)cc2)OCCCC[C@H](C)O3)cc1
2. C[C@@H]1CCCCO[C@@H](CN(C)Cc2ccncc2)[C@@H](C)CN([C@H](C)CO)C(=O)c2cc(NC(=O)c3ccccc3)ccc2O1
3. C[C@@H]1CCCCO[C@H](CN(C)C(=O)Nc2ccc(C(F)(F)F)cc2)[C@@H](C)CN([C@H](C)CO)C(=O)c2cc(NC(=O)c3ccncc3)ccc2O1
4. COc1ccc(NC(=O)N(C)C[C@H]2OCCCC[C@H](C)Oc3ccc(NS(=O)(=O)c4cn(C)cn4)cc3C(=O)N([C@H](C)CO)C[C@@H]2C)cc1

| Compound | 1 | 2 | 3 | 4 |
| --- | --- | --- | --- | --- |
| TDP1 inh | · | · | · | · |
| DT40 TDP1 no CPT | 23µM* | ? | 15µM* | 13% |
| TDP1 cell CPT | ? | -7% | 21µM* | 10% |
| miR-21 reporter | · | · | · | · |
| uPA generation | · | · | · | · |

The listing (from the top)
1. COc1ccc(S(=O)(=O)Nc2ccc3c(c2)C(=O)N([C@H](C)CO)C[C@H](C)[C@@H](CN(C)C(=O)Nc2ccc(C(F)(F)F)cc2)OCCCC[C@H](C)O3)cc1
2. C[C@@H]1CCCCO[C@@H](CN(C)Cc2ccncc2)[C@@H](C)CN([C@H](C)CO)C(=O)c2cc(NC(=O)c3ccccc3)ccc2O1
3. C[C@@H]1CCCCO[C@H](CN(C)C(=O)Nc2ccc(C(F)(F)F)cc2)[C@@H](C)CN([C@H](C)CO)C(=O)c2cc(NC(=O)c3ccncc3)ccc2O1
4. COc1ccc(NC(=O)N(C)C[C@H]2OCCCC[C@H](C)Oc3ccc(NS(=O)(=O)c4cn(C)cn4)cc3C(=O)N([C@H](C)CO)C[C@@H]2C)cc1
5. COc1ccc(NC(=O)N(C)C[C@H]2OCCCC[C@@H](C)Oc3ccc(NC(=O)c4ccccc4)cc3C(=O)N([C@H](C)CO)C[C@@H]2C)cc1
6. C[C@@H]1CCCCO[C@H](CN(C)C)[C@H](C)CN([C@@H](C)CO)C(=O)c2cc(NC(=O)Nc3ccc(C(F)(F)F)cc3)ccc2O1
7. COc1cc(NC(=O)c2nnn(CC(=O)Nc3cc(C)ccc3C)c2N)cc(OC)c1
8. COc1cc(-c2cc3nc(NCc4ccco4)ccn3n2)cc(OC)c1OC

| Compound | 1 | 2 | 3 | 4 | 5 | 6 | 7 | 8 |
| --- | --- | --- | --- | --- | --- | --- | --- | --- |
| TDP1 inh | · | · | · | · | · | · | 4% | · |
| DT40 TDP1 no CPT | 23µM* | ? | 15µM* | 13% | 21µM* | 1% | -4% | 12µM* |
| TDP1 cell CPT | ? | -7% | 21µM* | 10% | ? | ? | 0% | 21µM* |
| miR-21 reporter | · | · | · | · | · | · | -27% | · |
| uPA generation | · | · | · | · | · | · | · | · |

9. COc1cc(-c2cc3nc(NCCc4ccncc4)ccn3n2)cc(OC)c1OC
10. CCC(CO)Nc1ccn2nc(-c3cc(OC)c(OC)c(OC)c3)cc2n1 (centres undefined)
11. NS(=O)(=O)c1ccc(CCNc2ccn3nc(-c4ccccc4)cc3n2)cc1
12. COc1cc(CC(=O)OCC(=O)NCc2ccco2)cc(OC)c1OC
13. CC12CCC(C1)C(C)(C)C2=O (centres undefined)
14. CCOC(=O)C(C)(C)Sc1nc2c(cnn2-c2ccc(C)cc2)c(=O)[nH]1
15. CC(C)(C)c1cc2nc(NCCc3ccc(S(N)(=O)=O)cc3)ccn2n1
16. COc1cc(-c2cc3nc(NCCOc4ccccc4)ccn3n2)cc(OC)c1OC

| Compound | 9 | 10 | 11 | 12 | 13 | 14 | 15 | 16 |
| --- | --- | --- | --- | --- | --- | --- | --- | --- |
| TDP1 inh | · | · | · | · | 2% | 2%[56.1 µM] | · | · |
| DT40 TDP1 no CPT | 18µM* | 15µM* | ? | 13% | -1% | -16% | -25% | 2.3µM* |
| TDP1 cell CPT | 18µM* | ? | 26µM* | 2% | -27% | -20% | -15% | 2.6µM* |
| miR-21 reporter | · | · | · | · | · | -5% | · | · |
| uPA generation | · | · | · | -28% | · | -1% | · | · |

17. COc1ccc2nnc(-c3ccccc3)n2n1
18. COc1cc(-c2cc3nc(NCCc4ccc(S(N)(=O)=O)cc4)ccn3n2)cc(OC)c1OC
19. COc1cc2[nH]c(=S)nc(NCCc3ccc(S(N)(=O)=O)cc3)c2cc1OC
20. Clc1cccc(-c2cc3nc(NCCOc4ccccc4)ccn3n2)c1
21. CC(C)Cc1ccc(-c2cc3nc(NCCc4ccc(S(N)(=O)=O)cc4)ccn3n2)cc1
22. COc1cc(CCNc2ccc3nnc(-c4ccccc4)n3n2)cc(OC)c1OC
23. Fc1cccc(Cl)c1CNCc1ccccc1Cl
24. CCOC(=O)N1CCC(NC(=O)c2cccc3c2C(=O)N(c2ccc(OC)cc2)C3)CC1

| Compound | 17 | 18 | 19 | 20 | 21 | 22 | 23 | 24 |
| --- | --- | --- | --- | --- | --- | --- | --- | --- |
| TDP1 inh | 5% | · | -10% | · | · | 3% | -4% | · |
| DT40 TDP1 no CPT | -23% | 21µM* | 0% | -5% | 12µM* | 10µM* | ? | ? |
| TDP1 cell CPT | -12% | 23µM* | 0% | -2% | 23µM* | 16µM* | -25% | 15µM* |
| miR-21 reporter | -9% | · | -11% | · | · | 21% | -6% | -15% |
| uPA generation | -2% | · | 0% | · | · | 13% | -1% | 12% |

25. COc1ccc(N2Cc3cccc(C(=O)Nc4ccc(F)cc4)c3C2=O)cc1
26. COc1ccc(N2Cc3cccc(C(=O)Nc4ccc(C)cc4)c3C2=O)cc1
27. O=C(NC(Cc1ccccc1)C(=O)N1CCN(c2ccccn2)CC1)c1ccco1 (centres undefined)
28. N=C(N)c1ccc(/C=C/c2ccc(C(=N)N)cc2O)cc1
29. CC(SC(C)C(=O)NN=Cc1c[nH]c2ccccc12)C(=O)NN=Cc1c[nH]c2ccccc12 (centres undefined)
30. COc1cccc(-c2cnc3c(NC(C)=O)cc(-c4ccc(S(C)(=O)=O)cc4)cn23)c1
31. COc1ccc(-c2cnc3c(NC(C)=O)cc(-c4ccc(S(C)(=O)=O)cc4)cn23)cc1OC
32. COc1ccc(/C=C/C(=O)Nc2ccc(-n3nncc3-c3ccc(OC)c(OC)c3)cc2)cc1OC

| Compound | 25 | 26 | 27 | 28 | 29 | 30 | 31 | 32 |
| --- | --- | --- | --- | --- | --- | --- | --- | --- |
| TDP1 inh | 2% | ? | 1% | 6% | · | · | · | 2% |
| DT40 TDP1 no CPT | 8.2µM* | -19% | -4% | ? | -27% | 23µM* | 18µM* | ? |
| TDP1 cell CPT | 10µM* | ? | -20% | 13µM*! | ? | ? | ? | ? |
| miR-21 reporter | 20% | -3% | 0% | 2% | · | · | · | -18% |
| uPA generation | · | · | -5% | -5% | 4% | · | · | -15% |

33. CC(=O)Nc1cc(-c2cccc(C(=O)NCCN(C)C)c2)cn2c(-c3ccc(S(C)(=O)=O)cc3)cnc12
34. COc1ccc(C2C(C#N)C(C#N)N3CCCN23)cc1 (centres undefined)
35. N#CC1C(C#N)N2CCCN2C1c1ccc(Cl)cc1 (centres undefined)
36. O=C(c1cc(Cl)nc2ccccc12)N(Cc1nnc(-c2ccccc2Cl)o1)C1CC1
37. O=C(c1cc(Cl)nc2ccccc12)N(Cc1nnc(-c2ccc(Cl)cc2)o1)C1CC1
38. O=C(c1cc2ccccc2o1)N(Cc1nnc(-c2ccccc2Cl)o1)C1CC1
39. CCOc1ccc2oc(C(=O)N(Cc3nnc(-c4ccccc4Cl)o3)C3CC3)c(C)c2c1
40. O=c1/c(=C/c2ccc([N+](=O)[O-])cc2)sc2n1CCCN=2

| Compound | 33 | 34 | 35 | 36 | 37 | 38 | 39 | 40 |
| --- | --- | --- | --- | --- | --- | --- | --- | --- |
| TDP1 inh | · | 2% | -2% | · | -13% | 1%[0.505 µM] | · | 6% |
| DT40 TDP1 no CPT | -29% | -14% | 7.3µM* | 21µM* | 16µM* | ? | 23µM* | 13µM* |
| TDP1 cell CPT | 5% | -11% | 8.2µM* | 16µM* | 12µM* | -20% | ? | 26µM* |
| miR-21 reporter | · | -3% | 2% | · | · | · | · | -38% |
| uPA generation | · | -6% | -2% | -1% | 1% | -1% | -2% | -13% |

41. COc1cc(/C=c2\sc3n(c2=O)CCCN=3)ccc1O
42. COC(=O)c1ccc(NC(=O)CSc2nc(C)cc(C)c2C(=O)Nc2ccccc2)cc1
43. CCCCN(CC)C(=O)CCCn1c(=O)c2cccn2c2ccccc21
44. CCOc1ccc(CCNC(=O)CCCn2c(=O)c3cccn3c3ccccc32)cc1
45. CCOc1ccc(CNC(=O)CCCn2c(=O)c3cccn3c3ccccc32)cc1
46. CSc1ccc(CCNC(=O)CCCn2c(=O)c3cccn3c3ccccc32)cc1

| Compound | 41 | 42 | 43 | 44 | 45 | 46 |
| --- | --- | --- | --- | --- | --- | --- |
| TDP1 inh | 0% | 4% | 12% | 3% | 9% | 9% |
| DT40 TDP1 no CPT | -23% | ? | 21µM* | 23µM* | ? | 18µM* |
| TDP1 cell CPT | -25% | ? | ? | 18µM* | ? | ? |
| miR-21 reporter | -39% | 9% | -35% | -2% | 23% | ? |
| uPA generation | -7% | · | · | · | · | · |

Assay outcomes (PubChem)
